Entries after “also recorded” stand apart in the source; their conditions may differ.
How the values were obtained:
[1] = test system: proximal human colon specimens; test: Immunofluorescence of proximal human colon with claudin-1 peptide and antibody
Protocol: Formalin-fixed, paraffin-embedded (FFPE) specimens from human proximal colon were obtained from the archived tissue bank in the Department of Pathology at the University of Michigan. 5 μm thick sections were cut, mounted onto glass slides (Superfrost Plus, Fischer Scientific). The tissues were deparaffinized using a standard protocol. The sections were incubated with 3 rounds of xylene (3 min each) and 2 rounds of 100% and 95% ethanol (2 min each), and hydrated with water for 5 min. Antigen retrieval was performed with 10 mM citric acid buffer containing 0.05% Tween 20; pH 6.0. The specimens were placed in a citric acid buffer, maintained at a sub-boiling temperature for 15 min, and then allowed to cool to RT for 30 min. […] Confocal fluorescence images were collected with using a 63× oil immersion objective (Leica TCS SP5 Microsystems). […]
The mean fluorescence intensities from 3 boxes with dimensions of 20×20 μm2 placed completely within the surface epithelium of each image was measured for RTS*-Cy5.5 using custom Matlab software (MathWorks Inc). […]
Co-localization of peptide and antibody binding can be appreciated on these merged images, and the extent is characterized by the Pearson's correlation coefficient ρ. We measured the fluorescence intensities from binding of the RTS*-Cy5.5 peptide in a set of 3 boxes with dimensions of 20×20 μm^2 located at random on cells in the epithelium.

colonic dysplasia = test: In vivo fluorescence endoscopy of colon in CPC;Apc mouse; conditions: n=10 dysplasias
Protocol: A genetically engineered mouse model (Cpc;Apc) that spontaneously forms adenomatous polyps in the colon was used for this study and handled according to Institutional Guidelines. The colons of anesthetized mice were first cleaned with water before imaging with a small animal endoscope (Karl Storz Veterinary Endoscope) using the white light channel to locate polyps by identifying anatomic landmarks and the distance of the endoscope tip from the anus. A 100 μM solution of either RTS*-Cy5.5 or SPT*-Cy5.5 was applied topically and allowed to incubate for 5 minutes before rinsing thoroughly with water to remove unbound peptide. Fluorescent and reflectance images were then collected with the same endoscope set to the appropriate channels. Once in vivo imaging was complete, four of the mice used in the study were euthanized and colons harvested. Polyps and flat lesions detected during fluorescence imaging were located, removed, and processed for histology (H&E).
Colonic dysplasia was detected on wide-field endoscopy in the colon of CPC;Apc mice. […] After administration of RTS*-Cy5.5, fluorescence images were collected. […] Based on the location of dysplastic lesions determined using fluorescence images collected with endoscopy, a pathologist measured the depth of dysplasia on histology, as shown by the dashed arrow in FIG. 7E. […]

SW620 cells = test: Competitive binding assay with unlabeled peptide; assay type: cell-based, human
Protocol: SW620 cells were plated at 0.5×10^6 cells/mL on coverslips on 12-well plates. The following day, the cells were treated first with unlabeled RTS* peptide at 0, 25, 50, 100, 200, or 400 μM for 30 min at 4° C., washed with PBS, and then treated with 5 μM of RTS*-Cy5.5 for 30 min at 4° C. The cells were fixed with 4% PFA for 5 min at RT, washed, and counterstained with DAPI with Prolong Gold while placing on slides. Fluorescent images were collected with a Leica SP5× confocal microscope using a 63× (numerical aperture=1.4) oil-immersion objective. Fluorescence intensities were quantified via Matlab Software.
The specificity of peptide binding was also validated by competition assay. Cells were grown on cover glass and incubated first with unlabeled peptides with concentrations ranging from 0-400 μM, and then with the optimized peptide. The fluorescence intensities were measured with confocal microscopy. As an example, we evaluated binding of RTS*-Cy5.5 to SW620 cells on competition with addition of unlabeled RTS* and SPT* (control). We fit two-way ANOVA models with terms for the labeled peptide, concentrations of the unlabeled peptides and their interactions on log-transformed data. […] With this study design, analysis and effect sizes, as shown in FIG. 3A using triplicate slides, we have 100% power to obtain P<0.01 for differences between 0 and 400 nM for differences between RTS* and SPT*.

T84 monolayers = test: Transepithelial electrical resistance (TEER) and tight junction immunofluorescence; assay type: cell-based, human
Protocol: T84 human colon carcinoma cells were grown in a 1:1 mixture of DMEM and Ham's F-12 culture medium supplemented with 5% FBS. To establish polarized monolayer, the cells were plated on transwell permeable polyester supports (1.12 cm^2, pore size 3 μm, Costar) until they reached confluence after ˜3-4 days, as determined by an increase in TEER.43 The cells were continually grown on transwell supports until the TEER reached ˜2000 Ω-cm^2. Then, 5 μM of either RTS-Cy5.5 or control peptides were added. TEER was then measured at 6, 12 and 24 hours. The cells were fixed with 4% PFA for 12 min. After brief washing, 1% SDS in PBS was used to permeabilize the cells. These procedures were followed by 3% goat serum in PBS blocking for 30 min. Mouse anti-zonula occludens-1 (anti-ZO-1) (1:250, Life Technologies) and rabbit anti-claudin-1 (1:200, Life Technologies) antibodies were diluted in block buffer and incubated in humidity box overnight at 4° C. and fluorescent secondary antibodies were diluted to 1:1000 and incubated for 1 hour at RT. All images were obtained using Nikon A1 confocal microscope (MIL, University of Michigan).
We evaluated the effect of peptide binding on tight junction function using a polarized monolayer of T84 cells plated on transwell supports. We found high trans-epithelial electrical resistance (TEER) with either RTS* or SPT* for up to 24 hours, FIG. 12A. On immunofluorescence, we observed antibodies for zonula occludens-1 (ZO-1), FIG. 12B,E, and claudin-1, FIG. 12C,F, to localize to the cell junctions.

[2] = test system: extracellular domain of claudin-1; test: Phage display biopanning; assay type: binding, human; conditions: M13 library
Protocol: Peptide specific for CLDN1 were identified through the phage display technique using the PhD7 phage library (New England Biolabs, Ipswich, Mass.) according to the manufacturer's guidelines. The panning process was performed on 15 mm dishes coated with 0.1 mg/mL streptavidin, washed with TBST (Tris buffered saline (TBS) with 0.1% Tween-20), and blocked for 1 h at 4° C. with blocking buffer (0.1 M NaHCO3 with 0.5% bovine serum albumin (BSA) and 0.1 m/mL streptavidin). […] Unbound phage was collected after each clearing step and used in subsequent clearing steps. After the third and final round of clearing, phage were amplified and titered. To perform the biopanning process against CLDN1, the biotinylated CLDN1 ECD peptide was pre-complexed with 2×10^11 cleared, amplified phage before adding to a blocked streptavidin-coated dish for 30 minutes at RT with agitation. After 30 minutes, biotin was added at a final concentration of 0.1 mM for 5 minutes to bind any free streptavidin. Dishes were washed 10 times with TBST and weak binders were removed by eluting with elution buffer (0.2 M glycine, pH 2.2, with 1 mg/mL BSA) for 2 minutes. A second elution was performed for 13 minutes to elute strong binders. Eluate containing the strong binders was neutralized with neutralization buffer (1M Tris-HCl, pH 9.1), amplified, and titered before performing the next round of biopanning. […]

human colonic tissues = test: Ex vivo staining of human colonic tissue sections
Protocol: Human colon tissue was obtained through consenting patents at the University of Michigan Hospital. Tissue was frozen in OCT and sectioned 10 μm thick using a Cryostat. The sections were thawed before staining with 10 μM RTS*-Cy5 for 15 minutes at RT. Tissues were then washed with PBS, fixed with 4% PFA for 10 min at RT, and counterstained with DAPI with Prolong Gold. Fluorescence was imaged and quantified as outlined above.
Specimens of normal colonic mucosa, adenoma, and adenocarcinoma from the right side (proximal) of the colon were obtained from routine surveillance colonoscopy and surgically removed by endoscopic mucosal resection. The tissues were frozen in OCT (Sakura Finetek), cut in 10 μm sections, and incubated with pep*-Cy5 (5 μM) in 1×PBS for 15 minutes at RT. The sections were washed 3× with PBS. Confocal fluorescence images were collected from these sections with DAPI, FITC and Cy5 filter sets (Leica TCS SP5 Microsystems).
The mean fluorescence intensities (±SEM) from binding of pep*-Cy5 were measured for normal colonic mucosa (n=4, 7±2 AU), adenoma (n=6, 26±4 AU) and adenocarcinoma (n=5, 31±4 AU), P<0.001, unpaired t-test (FIG. 6, scale bar 500 μm). […] We found pep*-Cy5 and anti-claudin-1 mAb to stain colonic adenomas and adenocarcinomas in 11/12 (92%) and 10/10 (100%) sections, respectively.

RTS*-Cy5.5: RTSPSSR labeled at the C-terminus with Cy5.5 via a GGGSK linker
mean fold-difference in fluorescence intensity ([1]; SSA versus normal): 2.2 | mean fold-difference in fluorescence intensity ([1]; adenoma versus normal): 2.8

RTSPSSR [RTS*]
fold change of T/B ratio versus SPT* (colonic dysplasia; paired t-test): 1.95 fold change | T/B ratio (mean±SD) (colonic dysplasia; topical 100 μM, 5 minutes): 1.93±0.46 | competition for binding of RTS*-Cy5.5 to SW620 cells (SW620 cells; addition of unlabeled RTS* and SPT*): significant difference | concentration of unlabeled peptide at which significant differences in RTS*-Cy5.5 binding were observed (SW620 cells; unlabeled RTS* versus SPT* (control), 0-400 μM, then 5 μM RTS*-Cy5.5): ≥ 25 µM | trans-epithelial electrical resistance (TEER) (T84 monolayers; 5 μM peptide, up to 24 hours): high | effect on tight junction function and ZO-1 distribution (T84 monolayers; 24 hours after peptide incubation): neither peptide alters tight junction function or ZO-1 distribution; also recorded: not altered | localization of peptide in monolayer (T84 monolayers; T84 cells, by comparison to SPT*): localizes partially to cellular junctions; also recorded: partially localizes to cellular junctions | enrichment after three rounds of biopanning [2]: highest level of enrichment

pep*-Cy5: RTSPSSR labeled at the C-terminus with Cy5 via a GGGSK linker
T/B ratio (human colonic tissues; adenocarcinoma relative to normal): 4.4 | T/B ratio (human colonic tissues; adenoma relative to normal): 3.7
